The target of assay [1] is α4β1 integrin (Homo sapiens, UniProt P05556+P13612). The assay is described as follows: VCAM-1/α4β1 integrin binding inhibitory activity evaluation test (Jurkat cells binding to VCAM-1/Fc). The note with it: read-out: α4β1 IC50, recombinant human VCAM-1/Fc. On the procedure: (1) VCAM-1/α4β1 Integrin Binding Inhibitory Activity Evaluation Test
Each test substance was measured in terms of an ability to inhibit the VCAM-1 binding of a human T cell line, namely, a cell line Jurkat, which is known to express α4β1 integrin.
A solution of recombinant human VCAM-1/Fc (R&D Systems, Inc.) (1 μg/mL) diluted with a buffer A (carbonate buffer, pH 9.6) was placed in an amount of 50 μL/well in a 96-well microtiter plate, followed by incubation at 4° C. overnight. After the plate was washed with PBS once, 150 μL/well of Block Ace (Snow Brand Milk Products Co., Ltd.) was added, followed by incubation at room temperature for 2 hours. After removal, the plate was washed with PBS once.
(§1) Then, 100 μL of the Jurkat cells (2×10^6 cells/mL) and 100 μL of the test substance at each of various concentrations diluted with a binding buffer (DMEM containing 40 mM HEPES, 0.2% BSA, and 4 mM MnCl2) were added to the plate coated with the VCAM-1/Fc (5×10^5 cells/well), followed by incubation at 30° C. for 15 to 60 minutes. After the cells were bound to the wells, the plate was washed with PBS to remove unbound cells. […] After 30 μL of a stop solution (Promega, CytoTox 96 Non-Radioactive Cytotoxicity Assay) was added to each, and then an absorbance at 490 nm was measured using a plate reader. […]

The chains behind the UniProt entries cited, without tags or fusion partners. Residues count along the entry.
UniProt P05556, 21-798 limits assumed: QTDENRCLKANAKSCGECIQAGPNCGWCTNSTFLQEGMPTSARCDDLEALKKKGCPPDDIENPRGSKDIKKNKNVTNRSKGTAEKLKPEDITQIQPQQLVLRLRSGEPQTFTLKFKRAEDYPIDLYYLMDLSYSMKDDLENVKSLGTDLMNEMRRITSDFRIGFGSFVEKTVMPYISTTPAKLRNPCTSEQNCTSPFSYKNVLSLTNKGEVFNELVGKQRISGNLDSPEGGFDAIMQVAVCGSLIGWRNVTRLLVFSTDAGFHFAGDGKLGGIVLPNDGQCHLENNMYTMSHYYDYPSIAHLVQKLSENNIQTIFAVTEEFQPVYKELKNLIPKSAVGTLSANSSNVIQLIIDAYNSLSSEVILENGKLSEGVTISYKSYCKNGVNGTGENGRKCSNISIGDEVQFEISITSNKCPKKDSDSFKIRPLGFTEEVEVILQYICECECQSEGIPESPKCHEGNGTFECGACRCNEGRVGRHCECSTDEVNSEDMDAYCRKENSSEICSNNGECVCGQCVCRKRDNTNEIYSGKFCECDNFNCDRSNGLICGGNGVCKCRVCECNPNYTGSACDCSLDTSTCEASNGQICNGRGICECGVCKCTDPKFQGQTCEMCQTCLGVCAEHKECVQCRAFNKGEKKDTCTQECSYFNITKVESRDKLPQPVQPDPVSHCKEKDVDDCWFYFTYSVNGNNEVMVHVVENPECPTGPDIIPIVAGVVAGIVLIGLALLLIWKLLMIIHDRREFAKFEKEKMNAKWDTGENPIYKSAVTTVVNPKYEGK
UniProt P13612, 34-1032 limits assumed: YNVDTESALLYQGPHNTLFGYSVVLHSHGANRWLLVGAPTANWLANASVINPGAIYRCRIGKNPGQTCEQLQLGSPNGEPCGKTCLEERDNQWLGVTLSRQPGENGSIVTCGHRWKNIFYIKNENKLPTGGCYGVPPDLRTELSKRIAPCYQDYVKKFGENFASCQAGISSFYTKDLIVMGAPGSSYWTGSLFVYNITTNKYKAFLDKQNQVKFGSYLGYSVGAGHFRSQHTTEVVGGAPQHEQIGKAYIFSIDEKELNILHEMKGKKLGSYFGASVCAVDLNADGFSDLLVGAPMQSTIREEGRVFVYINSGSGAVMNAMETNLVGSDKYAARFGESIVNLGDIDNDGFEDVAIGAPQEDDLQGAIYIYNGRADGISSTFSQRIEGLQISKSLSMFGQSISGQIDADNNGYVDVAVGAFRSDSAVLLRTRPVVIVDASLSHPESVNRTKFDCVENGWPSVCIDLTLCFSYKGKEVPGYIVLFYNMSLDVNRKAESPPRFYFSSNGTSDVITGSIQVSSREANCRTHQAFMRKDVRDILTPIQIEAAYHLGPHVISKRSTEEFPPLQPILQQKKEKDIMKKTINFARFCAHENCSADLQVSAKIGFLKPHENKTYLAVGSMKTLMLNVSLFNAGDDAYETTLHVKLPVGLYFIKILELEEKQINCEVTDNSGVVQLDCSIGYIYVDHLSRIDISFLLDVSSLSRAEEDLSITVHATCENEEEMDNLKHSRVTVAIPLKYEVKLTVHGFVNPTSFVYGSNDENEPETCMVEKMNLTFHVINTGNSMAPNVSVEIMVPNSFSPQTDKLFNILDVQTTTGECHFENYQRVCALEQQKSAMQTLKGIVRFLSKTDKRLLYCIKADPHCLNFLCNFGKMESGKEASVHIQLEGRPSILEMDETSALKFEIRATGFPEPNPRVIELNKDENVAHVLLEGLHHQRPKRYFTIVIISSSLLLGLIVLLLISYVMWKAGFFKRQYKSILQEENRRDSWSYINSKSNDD
UniProt P26010, 20-798 limits assumed: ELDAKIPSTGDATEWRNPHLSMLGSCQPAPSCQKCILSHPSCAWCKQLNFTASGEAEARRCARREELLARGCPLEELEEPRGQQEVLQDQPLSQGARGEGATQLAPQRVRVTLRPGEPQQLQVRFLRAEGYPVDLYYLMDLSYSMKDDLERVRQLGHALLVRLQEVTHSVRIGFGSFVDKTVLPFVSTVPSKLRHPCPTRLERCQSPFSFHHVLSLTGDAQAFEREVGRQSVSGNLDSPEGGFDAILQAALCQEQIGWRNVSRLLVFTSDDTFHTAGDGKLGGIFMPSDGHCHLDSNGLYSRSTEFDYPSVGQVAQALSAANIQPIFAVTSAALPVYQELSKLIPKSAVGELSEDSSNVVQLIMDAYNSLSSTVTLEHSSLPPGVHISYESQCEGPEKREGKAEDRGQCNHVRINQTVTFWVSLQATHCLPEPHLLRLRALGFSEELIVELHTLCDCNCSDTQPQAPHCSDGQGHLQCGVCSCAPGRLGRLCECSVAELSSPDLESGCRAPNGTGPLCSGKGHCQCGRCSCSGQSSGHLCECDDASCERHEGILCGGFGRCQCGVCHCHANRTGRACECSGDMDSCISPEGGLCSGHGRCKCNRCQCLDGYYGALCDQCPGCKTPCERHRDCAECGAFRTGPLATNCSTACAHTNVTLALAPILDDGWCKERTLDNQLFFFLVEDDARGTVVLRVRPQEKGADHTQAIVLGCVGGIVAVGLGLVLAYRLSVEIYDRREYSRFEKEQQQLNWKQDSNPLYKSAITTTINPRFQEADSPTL

In assay [2] the target is T1, α4β7 integrin (Homo sapiens, UniProt P13612+P26010). The experiment in a line: MAdCAM-1/α4β7 integrin binding inhibitory activity evaluation test in presence of serum. The note with it: read-out: α4β7 Serum Added IC50; RPMI-8866 cells, recombinant mouse MAdCAM-1/Fc, 50% human serum. As to the method: (3) MAdCAM-1/α4β7 Integrin Binding Inhibitory Activity Evaluation Test in Presence of Serum (1)
(§2) Each test substance was measured in terms of an ability to inhibit the MAdCAM-1 binding of a human B cell line, namely, a cell line RPMI-8866, which is known to express α4β7 integrin.
A solution of recombinant mouse MAdCAM-1/Fc (R&D Systems, Inc.) (1 μg/mL) diluted with a buffer A (carbonate buffer, pH 9.6) was added in an amount of 50 μL/well to a 96-well microtiter plate, followed by incubation at 4° C. overnight. After the plate was washed with PBS once, 150 μL/well of Block Ace (Snow Brand Milk Products Co., Ltd.) was added, followed by incubation at room temperature for 2 hours. After removal, the plate was washed with PBS once.
Then, 100 μL of the RPMI-8866 cells (2×10^6 cells/mL) and 100 of the test substance at each of various concentrations diluted with a binding buffer (DMEM containing 40 mM HEPES, 0.2% BSA, and 4 mM MnCl2) were added to the plate coated with the MAdCAM-1/Fc (5×10^5 cells/well) such that 50% human serum was contained at the final concentration. Then, incubation was allowed to proceed at 30° C. for 15 to 60 minutes. […] After 30 μL of a stop solution (Promega, CytoTox 96 Non-Radioactive Cytotoxicity Assay) was added to each, and then an absorbance at 490 nm was measured using a plate reader. […]

Assay [3] deals with T1, α4β7 integrin. The experiment in a line: MAdCAM-1/α4β7 integrin binding inhibitory activity evaluation test (RPMI-8866 cells binding to MAdCAM-1/Fc). The note with it: read-out: α4β7 IC50, recombinant mouse MAdCAM-1/Fc, no serum. As to the method: (2) MAdCAM-1/α4β7 Integrin Binding Inhibitory Activity Evaluation Test
as §2
A solution of recombinant mouse MAdCAM-1/Fc (R&D Systems, Inc.) (0.75 μg/mL) diluted with a buffer A (carbonate buffer, pH 9.6) was added in an amount of 50 μL/well to a 96-well microtiter plate, followed by incubation at 4° C. overnight. After the plate was washed with PBS once, 150 μL/well of Block Ace (Snow Brand Milk Products Co., Ltd.) was added, followed by incubation at room temperature for 2 hours. After removal, the plate was washed with PBS once.
as §1, with “of the RPMI-8866 cells (2×10^6” for “of the Jurkat cells (2×10^6”, “were added on the plate” for “were added to the plate”, “with the MAdCAM-1/Fc (5×10^5 cells/well),” for “with the VCAM-1/Fc (5×10^5 cells/well),”

Structures are written as SMILES.

Take `Cc1c(C)n(C)c(=O)n(-c2ccc(C[C@H](NC(=O)c3cc(F)c(NS(=O)(=O)c4ccc(NC(=O)C(C)(C)C)c(F)c4)cc3F)C(=O)O)cc2)c1=O`: the IC50 in assay [1] worked out at 1800 nM; in assay [2], 22 nM; in assay [3], 0.93 nM.

For the origin of these results see US10562898B2, “Substituted benzenesulfonamides as inhibitors of alpha-4 beta-7 integrin activity” (EA PHARMA CO., LTD., priority 2016, dated 2020).
